# Screening results (PubChem)
# F508del corr = correctors of CFTR F508del function in bronchial epithelial cells | CFBE cells, YFP halide quenching; stimulated with forskolin plus potentiator P3; % fluorescence drop versus neutral controls | activity (quench increase), % at 7.58 µM | hit rate 0.36% among 350,000 | AID 720511;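 active = mean added fluorescence quench of at least 8% versus neutral control, with both replicates also reaching 8%; inconclusive = only one of the mean or replicate conditions met; inactive = mean below 8% and not both replicates reaching 8%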;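 note: cells transiently co-express mutant CFTR-F508del with the halide-sensitive YFP; corrector assay measuring rescue of mutant channel to the surface after 24 h compound exposure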
# EWS-Fli block = blocks EWS/Fli oncoprotein-driven transcription | A673 NR0B1-luciferase reporter, viability-normalised | inhibition, % at 12.6 µM | hit rate 0.67% among 350,000 | AID 651661;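 active = mean inhibition of at least 50% after viability correction, with every replicate also passing that limit; inconclusive = mean reaches 50% but only one of two replicates passes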;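 note: firefly luciferase signal divided by Alamar Blue viability fluorescence both relative to DMSO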
# UUG fidelity = modulators of start codon recognition fidelity in yeast. S. cerevisiae UUG-firefly luciferase reporter, luminescence/redox ratio. activity score, % at 18.7 µM. 0.13% of 350,000 active. AID 602363;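 active = replicate mean at a twofold rise or more, about +100% in these data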;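 also: firefly luciferase made from a UUG start codon reports start codon fidelity; reporter light over untreated wells divided by growth signal over untreated wells; some hits fall short of that in this replicate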
# PglD DTNB = inhibitors of Campylobacter jejuni PglD acetyltransferase | inhibition, % at 12.5 µM | hit rate 0.098% among 360,000 | AID 602405 | purified PglD enzyme, DTNB colorimetric CoA detection; in the data active = inhibition above about 16%, passing the limit was not always enough; inconclusive = no clear call, values can overlap the other calls
# LGR2 antag = Drosophila LGR2 receptor signaling inhibition; HEK293 LGR2, CRE-luciferase, bursicon-stimulated, 4 h; inhibition, % at 9.99 µM; AID 720647; hit rate 0.35% among 380,000;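 active = drop in luminescence signal, shown as inhibition above about 50% in the replicate tests, limit read from the data, passing the limit was not always enough; inconclusive = probably only some replicates passing the limit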;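 note: agonist challenge used bursicon conditioned medium at about half maximal strength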
# miR122 inh = miR-122 inhibition in Huh7 cells; Huh7 miR-122 Renilla luciferase sensor, 48 h; neutral wells = 0, positive control = 100; activation (reporter increase), % at 12.5 µM; hit rate 0.3% among 340,000; AID 602342;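 active = mean replicate activation score at least 90 and every replicate individually at or above 90; inconclusive = only one of the two criteria met; inactive = neither criterion met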;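 note: higher luciferase means less miR-122 activity so hits act as miR-122 inhibitors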
# * hit, by the source's call; u = inconclusive; x = no result given; ! = a repeat was not active; [ ] = dose if it differs, or a comment. A selection: hits, their analogues and other compounds. The true share with any hit is near 1.3%.
(1) Cn1cc(C(=O)N/N=C/c2ccc3c(c2)OCO3)c2ccccc21
(2) COc1ccc(CCNC(=O)CSc2nn(-c3ccccc3)c(=S)s2)cc1OC
(3) Cc1ccccc1OCC(=O)NNC(=O)Nc1ccc(Cl)cc1
(4) COc1ccc(CCn2c(NN=C(C)C)nc3c2c(=O)[nH]c(=O)n3C)cc1
(5) COc1ccc(CCn2c(NN)nc3c2c(=O)[nH]c(=O)n3C)cc1
(6) C[C@@H]1CN([C@H](C)CO)C(=O)c2cc(C3=CCCCC3)cnc2O[C@@H]1CN(C)C(=O)NC1CCCC1
(7) CC(C)COc1ccc(-c2nnc(-c3ccco3)o2)cc1
(8) CCN(CC)CCCNc1ccc(-c2nnc(-c3ccc(OCC(C)C)cc3)o2)cn1
Assay by compound	1	2	3	4	5	6	7	8
F508del corr	9.1*	x	x	9.8*	u	-5	x	-1
EWS-Fli block	11	x	x	-4	46	8	x	61*
UUG fidelity	-9	x	-5	-4	-4	1	-46	-7
PglD DTNB	2	x	-4	5	0	1	4	-3
LGR2 antag	-20	-3	x	5	-5	10	x	11
miR122 inh	15	x	144*	-8	4	x	-2	11

(9) O=C(Nc1ccc(F)cc1)C1CCN(C(=O)c2ccc(F)cc2)CC1
(10) CCOC(=O)CSc1nc2ccccc2c(=O)n1CC1CCC(C(=O)NCc2ccco2)CC1 (configuration not stated)
(11) CCOC(=O)CSc1nc2ccccc2c(=O)n1CC1CCCC1
(12) Cc1cc2oc(C(=O)NCCc3ccc(S(N)(=O)=O)cc3)c(C)c2cc1C
(13) Cc1cc2oc(C(=O)NCCc3ccc(S(N)(=O)=O)cc3)cc(=O)c2cc1C
(14) CCCC(=O)N1CCCC(c2cc(C(=O)Nc3ccccc3)no2)C1 (configuration not stated)
(15) C[C@H](CO)N1C[C@H](C)[C@@H](CN(C)Cc2ccc3c(c2)OCO3)Oc2ncc(C#CCN(C)C)cc2C1=O
(16) N#CC1=C(N)Oc2cc(N)ccc2C1c1ccccc1F (configuration not stated)
Assay by compound	9	10	11	12	13	14	15	16
F508del corr	14*	x	x	12*	-1	-1	-2	-1
EWS-Fli block	4	x	x	10	1	14	-10	55*
UUG fidelity	-3	21	-16	x	-15	-80	-4	-16
PglD DTNB	-2	0	7	x	12	5	-1	0
LGR2 antag	x	1	x	25	-5	82*	5	1
miR122 inh	-6	138*	-2	x	4	-4	0[16.7 µM]	4

(17) N#CC1=C(N)Oc2cc(N)ccc2C1c1cc(Br)cs1 (configuration not stated)
(18) COc1cccc(NC(=O)N(C)C[C@@H]2Oc3cc(-c4ccccc4OC)ccc3S(=O)(=O)N([C@H](C)CO)C[C@@H]2C)c1
(19) Cc1cc(C)cc(OCc2ccc(C(=O)NN)o2)c1
(20) C[C@@H]1CN([C@@H](C)CO)C(=O)c2cc(C#CC3(O)CCCC3)cnc2O[C@H]1CN(C)S(=O)(=O)c1cccc(F)c1
(21) O=C(Nc1cnc2ccccn2c1=O)c1ccc(Cl)cc1Cl
(22) Cc1cccc(NC(=O)c2cnc3ccccn3c2=O)c1
(23) Cc1cccc(NC(=O)c2cnc3sccn3c2=O)c1
(24) Cc1ccccc1S(=O)(=O)N1[C@H](C#N)[C@H](c2ccc(C#CC3CCCCC3)cc2)[C@H]1CO
Assay by compound	17	18	19	20	21	22	23	24
F508del corr	x	-4	3	2	1	-2	2	-1
EWS-Fli block	58*	-5	6	-8	41	58*	-13	36
UUG fidelity	12	12	x	15	-44	-34	-42	-27
PglD DTNB	3	-4	x	3	-4	11	0	3
LGR2 antag	x	10	8	2	71*	x	-54	76*
miR122 inh	10	-11[16.7 µM]	x	-9[16.7 µM]	0	x	26	x

# Arranged by molecular weight (smallest number first): part of the list above
(22) Cc1cccc(NC(=O)c2cnc3ccccn3c2=O)c1
(23) Cc1cccc(NC(=O)c2cnc3sccn3c2=O)c1
(17) N#CC1=C(N)Oc2cc(N)ccc2C1c1cc(Br)cs1 (configuration not stated)
(20) C[C@@H]1CN([C@@H](C)CO)C(=O)c2cc(C#CC3(O)CCCC3)cnc2O[C@H]1CN(C)S(=O)(=O)c1cccc(F)c1
Assay by compound	22	23	17	20
F508del corr	-2	2	x	2
EWS-Fli block	58*	-13	58*	-8
UUG fidelity	-34	-42	12	15
PglD DTNB	11	0	3	3
LGR2 antag	x	-54	x	2
miR122 inh	x	26	10	-9[16.7 µM]

# Next part
(25) Cc1ccccc1S(=O)(=O)N1[C@H](C#N)[C@@H](c2ccc(C#CC3CCCCC3)cc2)[C@@H]1CO
(26) CN(C)C(=O)COc1ccc2ccc(=O)oc2c1
(27) CCN(C(=O)COc1ccc2ccc(=O)oc2c1)C1CCCCC1
(28) CC(=Nc1ccccc1O)c1sc2ccccc2c1O
(29) CCCC(=O)N(c1ccc(F)cc1)C1C=CS(=O)(=O)C1 (configuration not stated)
(30) S=C1NC2(CCCCC2)Cc2ccccc21
(31) CCN1CCN(Cc2ccc(NC(=O)c3cc(NC(=O)c4ccc5n[nH]nc5c4)cc(OC)c3)cc2C(F)(F)F)CC1
(32) CCN1CCN(Cc2ccc(NC(=O)c3cc(NC(=O)c4cc5cccc(OC)c5o4)cc(OC)c3)cc2C(F)(F)F)CC1
Assay by compound	25	26	27	28	29	30	31	32
F508del corr	5	x	18*	10*	-5	x	3	-1
EWS-Fli block	7	x	-7	-72	-5	x	-15	53*!
UUG fidelity	-17	-17	4	-2	-22	-29	-6	-8
PglD DTNB	2	-1	-2	-1	1	-2	14	2
LGR2 antag	3	x	-4	-58	17	1	5	12
miR122 inh	x	8	x	-4	-1	-2	-8	-31

(33) CCN1CCN(Cc2ccc(NC(=O)c3cc(NC(=O)c4cncc(-c5cccs5)c4)cc(OC)c3)cc2C(F)(F)F)CC1
(34) Cc1ccc(C(=O)Nc2cccc(C(F)(F)F)c2)cc1NC(=O)c1c[nH]c2cc(C(F)(F)F)ccc2c1=O
(35) CCN1CCN(Cc2ccc(NC(=O)c3cc(NC(=O)c4cc(-c5ccc(OC)cc5)n[nH]4)cc(OC)c3)cc2C(F)(F)F)CC1
(36) CCN1CCN(Cc2ccc(NC(=O)c3cc(NC(=O)c4ccno4)cc(OC)c3)cc2C(F)(F)F)CC1
(37) CCN1CCN(Cc2ccc(NC(=O)c3ccc(C)c(NC(=O)c4c[nH]c5cc(C(F)(F)F)ccc5c4=O)c3)cc2C(F)(F)F)CC1
(38) Nc1[nH]c(C(=O)c2ccccc2)c(-c2ccc(Br)cc2)c1C(=O)c1cccs1
(39) Nc1c(N2CCCCC2)c(=O)[nH]c(=O)n1-c1ccccc1
(40) CC(C)NC(=O)CCCn1cc([N+](=O)[O-])cn1
Assay by compound	33	34	35	36	37	38	39	40
F508del corr	-4	2	-1	0	5	1	x	-1
EWS-Fli block	64*	-4	51*	27	63*!	-10	x	8
UUG fidelity	6	-11	-13	-4	-3	x	-7	-8
PglD DTNB	-4	1	-5	-1	0	x	5	0
LGR2 antag	30	-1	2	8	u	-2	x	x
miR122 inh	-29	6	-3	-8	-33	x	2	-3

(41) Cc1nn(C)c(C)c1/C=N/NC(=O)CCn1cc([N+](=O)[O-])cn1
(42) C[C@H]1CN([C@@H](C)CO)C(=O)Cc2cc(NC(=O)CCC(F)(F)F)ccc2O[C@@H]1CN(C)S(=O)(=O)c1cccs1
(43) Cc1ccc(C(=O)n2c(N)nc3ccccc32)cc1
(44) O=C(CC(CC(=O)c1ccccc1)c1ccncc1)c1ccccc1
(45) O=C(NCc1cccnc1)/C(=C\c1ccc(-c2ccc(Cl)c(Cl)c2)o1)S(=O)(=O)c1ccccc1
(46) COc1ccccc1N1CCN(S(=O)(=O)c2c(C)[nH]c(C)c2C(=O)N2CCCC2)CC1
(47) COc1cccc(CNCc2ccc(OC)cc2OC)c1
Assay by compound	41	42	43	44	45	46	47
F508del corr	x	-1	5	0	-7	-1	3
EWS-Fli block	72*	0	75*	1	40	1	6
UUG fidelity	x	-4	-76	-17	-5	-3	-12
PglD DTNB	x	0	2	1	-8	-2	-3
LGR2 antag	13	-20	89*	1	103*	-8	19
miR122 inh	x	4[16.7 µM]	-4	-4	10	-3	1
